Among the data in patent US20220194983A1, “PEPTIDE LIGANDS FOR BINDING TO PSMA” (BicycleTx Limited, priority 2018, published 2022) are Ki, IC50 and Kd values, retold here.

Amino acid sequences for entries named in this document (tags omitted).
UniProt Q04609, whole entry: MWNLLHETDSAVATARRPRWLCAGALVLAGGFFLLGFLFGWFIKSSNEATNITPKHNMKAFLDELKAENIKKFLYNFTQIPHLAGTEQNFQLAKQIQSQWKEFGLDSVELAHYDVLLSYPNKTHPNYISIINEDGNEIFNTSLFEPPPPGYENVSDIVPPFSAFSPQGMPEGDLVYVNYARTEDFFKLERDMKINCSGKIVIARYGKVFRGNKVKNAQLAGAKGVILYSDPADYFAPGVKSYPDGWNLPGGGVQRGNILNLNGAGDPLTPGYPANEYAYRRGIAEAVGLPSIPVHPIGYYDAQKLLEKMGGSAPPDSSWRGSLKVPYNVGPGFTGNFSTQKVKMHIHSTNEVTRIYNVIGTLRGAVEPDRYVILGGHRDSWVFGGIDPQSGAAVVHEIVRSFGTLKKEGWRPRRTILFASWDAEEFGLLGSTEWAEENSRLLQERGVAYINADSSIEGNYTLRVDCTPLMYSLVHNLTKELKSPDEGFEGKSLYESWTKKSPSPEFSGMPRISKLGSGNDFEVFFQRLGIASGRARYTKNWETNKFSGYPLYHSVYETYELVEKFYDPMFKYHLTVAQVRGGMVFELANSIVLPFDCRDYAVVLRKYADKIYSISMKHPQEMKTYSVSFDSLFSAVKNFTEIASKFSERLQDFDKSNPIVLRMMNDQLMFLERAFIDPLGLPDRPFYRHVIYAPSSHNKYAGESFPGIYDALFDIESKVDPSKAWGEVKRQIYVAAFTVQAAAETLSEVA

Where “and” joins values, the source holds several entries; their conditions need not be identical. Equal entries are not always repeated. Where two headings read alike, the source gives them in different places.

Experiment [1] deals with T1, PSMA (Homo sapiens, UniProt Q04609). The experiment can be described thus: PSMA binding, fluorescence polarization assay. On the procedure:
(§1) PSMA binding was measured using the fluorescence polarization assay methodology described in Shen et al (2013) PLOS ONE 8(7), e68339 and PSMA enzyme inhibition was measured using the methodology described in WO 2009/070302.

The target of experiment [2] is T1, PSMA. The experiment can be described thus: PSMA enzyme inhibition assay. Format: biochemical. Particulars: reference thioether TBMB peptide ligands; evaluated as in earlier application GB201720940.4. Here is the method:
as §1

Experiment [3] deals with T1, PSMA. Description: measured PSMA affinities (ka, kd, KD) of Dap(Me) substituted bicycles, Table 1. Format: binding.
[4] abbreviates: reference thioether TBMB peptide ligands, evaluated as in earlier application GB201720940.4, read-out: FP (h) ki.
Where [5] appears, read: read-out: measured affinity (Ki) to PSMA.

Regarding (B-Ala)-Sar5-ACMVCHMMEDGTC [A22], the inhibitory constant (Ki) on PSMA [1] (setting [4]) was determined as 596 nM.
Regarding (B-Ala)-Sar5-EVCWDCFMMEDGTC [A9], on PSMA [1] (setting [4]), the Ki was found to be 163 nM.
The same measure, in the same setting: next, (B-Ala)-Sar5-VCLECNMMEDGTC [A20]: 512 nM.
As to (D-E)VCWDCFMMEDGTCA-Sar6-K [A8], the Ki on PSMA [1] (setting [4]) was determined as 25.8 nM.
For the substance (D-V)CLECNMMEDGTCA-Sar6-K [A19], the inhibition constant Ki at PSMA [1] (setting [4]) stood at 1490 nM.
For the substance ACMVCHMMEDGTCA [A1], the IC50 at PSMA [2] was determined as 695 nM. Moreover, the Ki at PSMA [1] (setting [4]) came to 40 nM.
As to ACMVCHMMEDGTCAGASPAAPSAPP [A3], the Ki at PSMA [1] (setting [4]) amounted to 95.5 nM.
For “Ac-(D-E)VCWDCF(Nle)(Nle)EDGTCA-Sar6-(D-K) [A15]”, the Ki on PSMA [1] (setting [4]) is 55 nM.
On the same count and under the same terms, next, “Ac-(D-E)VCWDCF(Nle)(Nle)EDGTCA-Sar6-K [A11]”: 38.5 nM; “Ac-(D-E)VCWDCF(Nle)MEDGTCA-Sar6-(D-K) [A13]”: 82 nM.
The same measure, in the same setting: next, “Ac-(D-E)VCWDCFM(Nle)EDGTCA-Sar6-(D-K) [A14]”: 5.1 nM; Ac-(D-E)VCWDCFMMEDGTCA-Sar6-(D-K) [A12]: 30 nM; Ac-(D-E)VCWDCFMMEDGTCA-Sar6-K(Ac) [A10]: 18.3 nM.
Still for that read-out and setting: next, “Ac-C(Nle)VCH(Nle)(Nle)EDGTCA-Sar6-K [A23]”: 296 nM; Ac-CMVCHMMEDGTC [A2]: 182 nM; Ac-CMVCHMMEDGTCA-Sar6-K [A21]: 384 nM.
For the substance CEECFRLEDGTCA [A6], on PSMA [1] (setting [4]), the Ki is 36.5 nM.
Take CEECLTLEDGTCA [A5]: the Ki on PSMA [1] (setting [4]) is 28 nM.
Still for that read-out and setting: under CIECYIMEDGTCA [A4] stands 70 nM.
EVCWDCFMMEDGTCA [21-31-04-T01-N001]: the Ki on PSMA [1] (setting [5]) came to 3 nM; at PSMA [1] (setting [4]), 2.2 nM.
Consider “EVCWD[Dap(Me)]FMMEDGT[Dap(Me)]A [21-31-04-T01-N017]”, for which the Ki at PSMA [1] (setting [5]) came out at 700 nM.
The same measure, in the same setting: under “EV[Dap(Me)]WDCFMMEDGT[Dap(Me)]A [21-31-04-T01-N018]” stands 18.9 nM; under “EV[Dap(Me)]WD[Dap(Me)]FMMEDGTCA [21-31-04-T01-N016]”, 44.3 nM.
FCSECYMMEDGTCA [A17]: the Ki on PSMA [1] (setting [4]) worked out at 6 nM.
The same measure, in the same setting: under LCMECYMMEDGTCA [A18] stands 7.6 nM; under SVCRECYMMEDGTCA [A16], 13 nM.
Turning to “[Ac][dE]V[Dap(Me)]KDCF[Nle][Nle]EDGT[Dap(Me)]A [BCY00009314]”, the Kd on PSMA [3] is 1020 nM and 1140 nM.
Same read-out and setting: under “[Ac][dE]V[Dap(Me)]WDCFL[Nle]EDGT[Dap(Me)]A [BCY00009306]” stands 218 nM and 381 nM.
Still for that read-out and setting: under “[Ac][dE]V[Dap(Me)]WDCFY[Nle]EDGT[Dap(Me)]A [BCY00009308]” stands 330 nM and 441 nM; under “[Ac][dE]V[Dap(Me)]WDCF[Hse(Me)][Nle]EDGT[Dap(Me)]A [BCY00009305]”, 1240 nM and 1580 nM.
Still for that read-out and setting: next, “[Ac][dE]V[Dap(Me)]WDCF[Nle]LEDGT[Dap(Me)]A [BCY00009310]”: 728 nM and 734 nM.
Take “[Ac][dE]V[Dap(Me)]WDCF[Nle][Hse(Me)]EDGT[Dap(Me)]A [BCY00009309]”: the Kd at PSMA [3] is 5660 nM and 5970 nM.
On the same count and under the same terms, under “[Ac][dE]V[Dap(Me)]WDCF[Nle][Nle]EDGT[Dap(Me)]A [BCY00009300]” stands 145 nM; under “[Ac][dE]V[Dap(Me)]WDCF[Nle][tBuAla]EDGT[Dap(Me)]A [BCY00009311]”, 124 nM; under “[Ac][dE]V[Dap(Me)]WDCF[tBuAla][Nle]EDGT[Dap(Me)]A [BCY00009307]”, 486 nM and 658 nM.
Still for that read-out and setting: under “[Ac][dE]V[Dap(Me)]WDCK[Nle][Nle]EDGT[Dap(Me)]A [BCY00009315]” stands 1640 nM; under “[Ac][dE]V[Dap(Me)]WDCY[Nle][Nle]EDGT[Dap(Me)]A [BCY00009304]”, 120 nM and 214 nM.
Still for that read-out and setting: under “[Ac][dE]V[Dap(Me)][2Nal]DCF[Nle][Nle]EDGT[Dap(Me)]A [BCY00009303]” stands 213 nM and 317 nM; under “[Glutarate][dE]V[Dap(Me)]WDCF[Nle][Nle]EDGT[Dap(Me)]A [BCY00009313]”, 78.8 nM.

The Ki is a measure of affinity in units of concentration, obtained from inhibition or displacement. A word on the IC50: it is the midpoint of a concentration-inhibition curve. The term Kd denotes the concentration at which binding is half-saturated. A higher Kd goes with lower affinity.
